Here are results for one substance from patent US10167453B2, “Saccharide oxidase, and production method for same and use of same” (AMANO ENZYME INC., priority 2012, dated 2019).

The series has as its system Maltose monohydrate. The series can be described thus: purified protein, by the assay type. Particulars: other: saccharide as substrate of the purified protein; pH 7.0; 37.0 °C.

Turning to “Acremonium chrysogenum NBRC30055-derived saccharide oxidase (Hapsidospora chrysogenum ATCC 11550)”, the Michaelis-Menten constant (Km) is listed as 14 mM.

By Km is commonly meant the concentration of substrate that gives half-maximal velocity.
